# Earlier results in patent US20220008553A1, “ANTI-ERBB2 ANTIBODY-DRUG CONJUGATE AND COMPOSITION THEREOF, PREPARATION METHOD THEREFOR, AND USE THEREOF” (SICHUAN KELUN-BIOTECH BIOPHARMACEUTICAL CO., LTD., priority 2015, published 2022).
# Marks after values point to notes of the source that are not given here.
# Conditions: rats, according to Bender et al., The AAPS Journal 2014; cited from earlier work
substance,measurement,value
T-DM1,T1/2 (h),114* h
